The record followed here is EP0728012B1, “NOVEL GnRH ANALOGUES WITH ANTITUMOUR EFFECTS AND PHARMACEUTICAL COMPOSITIONS THEREOF” (Lovas, Sandor, priority 1994, dated 1996).

For this series the following is noted: in vivo; once s.c. or i.p. 10-fold of the effective dose (400 µg/animal active substance).

For the substance “Ac-D-Trp^1,3,D-Cpa^2,{Lys(n-poly-(N-vinylpyrrolidone-co-maleic acid)-Gly-Phe-Leu-Gly]}^6,D-Ala^10-GnRH [P-GFLG-1544]”, the toxicity result is “non-toxic”.

“Ac-D-Trp^1,3,D-Cpa^2, {Lys[n-poly(N-vinyl pyrrolidone-co-maleic acid)-Gly-Phe-Leu-Gly-]}^5, [a-Asp(DEA)]^6, D-Ala^10-GnRH [P-GFLG-1892]”: the toxicity entry is reported as “non-toxic”.
